# US8088733B2 (dated 2012)
# The chains behind the UniProt entries cited, without tags or fusion partners.
# UniProt Q92847, whole entry: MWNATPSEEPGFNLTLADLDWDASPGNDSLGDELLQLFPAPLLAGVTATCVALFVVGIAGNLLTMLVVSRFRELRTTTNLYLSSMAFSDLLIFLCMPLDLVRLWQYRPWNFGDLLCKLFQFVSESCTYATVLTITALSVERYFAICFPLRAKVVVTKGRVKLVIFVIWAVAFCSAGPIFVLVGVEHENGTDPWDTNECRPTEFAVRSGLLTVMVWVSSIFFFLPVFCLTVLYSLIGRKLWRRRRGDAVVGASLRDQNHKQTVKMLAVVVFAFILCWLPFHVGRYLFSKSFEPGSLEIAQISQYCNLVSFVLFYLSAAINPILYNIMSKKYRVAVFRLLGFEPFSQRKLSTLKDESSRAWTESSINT
# Molecular target: human ghrelin receptor (Homo sapiens, UniProt Q92847)
# Settings: reference agonist concentration
substance,measurement,value
ghrelin,EC80,3.7 nM
